In the test the target is MMP-13 (Homo sapiens, UniProt P45452). The experiment in a line: MMP-13 Toolkit solid-phase binding assay (SPBA), wild type active MMP-13. Also noted: made in house; host or cells: mouse myeloma cells. Conditions: wild type MMP-13 on collagen-coated wells, four experiments, differences not significant. The method, then: Recombinant proMMP-13 was expressed and purified as previously described ([18]). Where required, proMMP-13 was activated to yield MMP-13 by incubation in 1 mM 4-amino-phenylmercuric acetate (APMA) for 1 h at 37 °C. ProMMP-13(E204A) was expressed in Escherichia coli BL21(DE3), refolded, purified, and activated essentially as described for proMMP-1(E200A) ([19], [20]). The Cat domain of MMP-13 (Δ249–451) was expressed and purified from NSO mouse myeloma cells as previously described ([12]). […]
Immulon 2 HB 96-well plates (Nunc, Langenselbold, Germany) were coated with Collagen Toolkit or other peptides, fibrillar or monomeric collagen at a saturating concentration (10 μg/ml in 0.01 M acetic acid) overnight at 4 °C. […] Rabbit anti-MMP-13, raised against MMP-13 hinge region (Abcam, Cambridge, UK), and goat anti-rabbit HRP (Dako, Ely, UK) were added at a dilution of 1:2000 in adhesion buffer prior to the addition of TMB substrate system (Sigma), and the plates read at 450 nm. […] To confirm affinity of the anti-hinge antibody for MMP-13 and MMP-13(E204A), increasing concentrations of MMP were coated onto an ELISA plate prior to blocking and detected as previously described. Binding curves were fitted using Prism 5.0 software (GraphPad, San Diego), allowing total binding (Bmax) and equilibrium dissociation constant (KD) to be determined. […]

Take “fibrillar type I collagen: Fibrous bovine type I collagen, a gift from Ethicon Corporation”: the affinity, expressed as Kd, was 33 nM. In turn, “monomeric type I collagen: Monomeric collagen obtained from Devro (Bathurst, Australia)” came in with a Kd of 118 nM.

Broadly, the Kd is the free concentration of one partner at which half of the binding sites on the other are occupied at equilibrium, for simple one-to-one binding.

Source of the values: paper PMC4148842, “The Recognition of Collagen and Triple-helical Toolkit Peptides by MMP-13” (The Journal of Biological Chemistry, 2014).
